By UniProt entry, the sequences of proteins in these tests, tags left out.
UniProt P51531, whole entry: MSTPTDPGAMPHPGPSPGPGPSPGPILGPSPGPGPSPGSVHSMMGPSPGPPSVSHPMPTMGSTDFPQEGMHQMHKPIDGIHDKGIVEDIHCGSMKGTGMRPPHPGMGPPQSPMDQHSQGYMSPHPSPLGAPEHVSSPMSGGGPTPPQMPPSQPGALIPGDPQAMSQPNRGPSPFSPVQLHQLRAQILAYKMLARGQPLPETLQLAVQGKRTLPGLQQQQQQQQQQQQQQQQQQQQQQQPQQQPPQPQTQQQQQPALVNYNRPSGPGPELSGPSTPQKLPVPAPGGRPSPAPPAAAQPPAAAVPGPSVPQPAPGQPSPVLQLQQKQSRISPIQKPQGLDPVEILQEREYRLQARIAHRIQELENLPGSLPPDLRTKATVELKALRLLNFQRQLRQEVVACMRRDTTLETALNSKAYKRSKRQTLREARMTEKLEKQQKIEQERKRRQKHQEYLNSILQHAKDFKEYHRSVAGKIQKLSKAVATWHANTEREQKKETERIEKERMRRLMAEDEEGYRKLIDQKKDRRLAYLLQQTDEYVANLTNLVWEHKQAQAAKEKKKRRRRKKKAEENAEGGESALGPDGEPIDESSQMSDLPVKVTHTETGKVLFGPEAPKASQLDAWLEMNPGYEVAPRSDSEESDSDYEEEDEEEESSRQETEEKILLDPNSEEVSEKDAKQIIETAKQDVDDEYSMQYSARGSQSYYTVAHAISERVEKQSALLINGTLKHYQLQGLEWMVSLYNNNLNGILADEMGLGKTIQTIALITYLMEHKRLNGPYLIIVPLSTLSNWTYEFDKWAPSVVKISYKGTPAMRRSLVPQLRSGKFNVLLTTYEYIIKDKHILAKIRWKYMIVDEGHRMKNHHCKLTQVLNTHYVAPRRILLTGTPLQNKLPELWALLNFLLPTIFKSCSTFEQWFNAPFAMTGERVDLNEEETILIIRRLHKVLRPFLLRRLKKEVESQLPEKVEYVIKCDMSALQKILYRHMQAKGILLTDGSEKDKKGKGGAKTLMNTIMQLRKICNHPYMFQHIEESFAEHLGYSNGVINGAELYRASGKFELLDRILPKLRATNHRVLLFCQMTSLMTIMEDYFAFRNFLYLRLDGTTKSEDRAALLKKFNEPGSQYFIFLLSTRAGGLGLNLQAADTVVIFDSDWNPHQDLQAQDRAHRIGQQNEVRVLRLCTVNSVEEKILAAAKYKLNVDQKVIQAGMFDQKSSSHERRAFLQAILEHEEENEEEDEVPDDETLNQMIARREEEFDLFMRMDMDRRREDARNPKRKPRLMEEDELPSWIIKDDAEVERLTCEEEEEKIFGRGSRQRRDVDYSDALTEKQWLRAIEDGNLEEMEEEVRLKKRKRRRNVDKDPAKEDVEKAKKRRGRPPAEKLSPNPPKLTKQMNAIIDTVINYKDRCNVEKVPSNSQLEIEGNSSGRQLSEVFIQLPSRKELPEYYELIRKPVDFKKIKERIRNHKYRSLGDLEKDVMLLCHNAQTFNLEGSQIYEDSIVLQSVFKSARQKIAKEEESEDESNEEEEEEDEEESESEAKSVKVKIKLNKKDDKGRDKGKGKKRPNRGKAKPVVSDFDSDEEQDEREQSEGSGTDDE

In US12606568B2, “SMARCA degraders and uses thereof” (Kymera Therapeutics, Inc., priority 2020, dated 2026):

Biological target: SMARCA2 (Homo sapiens, UniProt P51531)
Assay: SMARCA2 Western blot MV4-11 degradation
Method: Example 54. SMARCA2 and SMARCA 4 Western Blot MV4-11 Degradation
Cells were seeded into 6-well plates (MV4-11: 4×10^6 cells/well/1 ml) and 1 ml of 2× compound solution was added into the well to make the final concentration and the plates were mixed well and incubated for 24 hours (No cytotoxicity was observed). The cell were collected with media and spun at 3000 rpm for 5 minutes. The supernatant was aspirated and the well and the cells were washed with cold PBS once and combined for centrifugation again; the supernatant aspirated again. 200 ul pre-chilled RIPA lysis buffer (Boston BioProducts BP-115D) with protease/phosphatase inhibitor (Roche 05892791001/Roche 04906837001) was directly added into the tube to lyze the cells for 20 minutes on ice. The cell lysate were collected into EP tubes and spun at 13000 rpm for 20 minutes and 72 ul supernatant was transferred to a fresh EP tube containing 18 ul of 5× loading buffer (Beyotime Bio P0015) to make the loading samples. The samples were heated to 100° C. for 10 minutes and cooled to RT and microcentrifuged. 20 ul of samples were loaded onto SDS-PAGE gel (Novex, WG1402BOX) and the gel was run at 80 V for 20 minutes and 120 V for 1.5 hours. The samples were electrotransfer to a NC membrane using wet-transfer method with 250 mA for 2.5 hours. […] The membrane was washed three times with TBST, 5 minutes each and lastly the LiCOR was read. […]

SMILES: Cc1ncsc1-c1ccc(CNC(=O)[C@@H]2C[C@@H](O)CN2C(=O)[C@@H](NC(=O)C2(F)CC2)C(C)(C)C)c(O[C@H]2CC[C@@H](N3CCC(c4cnc(N5C6CCC5CN(c5cc(-c7ccccc7O)nnc5N)C6)nc4)CC3)CC2)c1
- SMARCA2 MSD MV411 degradation 24 h: average Dmax % (MV4-11 cells): A (A (>90% degradation))
- DC50 (read-out: SMARCA2 MSD MV411 degradation 24 h: Mean external-Abs DC50, MV4-11 cells): < 100 nM
